assay: Inhibition of RyR2 R4496C mutant (unknown origin)-mediated store-overload induced calcium release expressed in HEK293 cells after 8 to 10 mins by fura-2/AM dye-based fluorescence assay; assay type: cell-based; conditions: Homo sapiens

SMILES | IC50 [mM]
COc1ccccc1OCCN(C)CC(COc1cccc2c1c1ccccc1n2C)OC (stereo not drawn) | 0.0117
COc1ccccc1OCCN1CC(CCOc2ccc3c(c2)[nH]c2ccccc23)OCC1=O (stereo not drawn) | > 1
CCCCCCCCCCCCCCCCCC(=O)n1c2ccccc2c2c(OCC(O)CNCCOc3ccccc3OC)cccc21 (stereo not drawn) | > 1
CCCCCCCCCCCCCCCCCC(=O)n1c2ccccc2c2c(OCC3CN(CCOc4ccccc4OC)C(=O)CO3)cccc21 (stereo not drawn) | 0.0865
COc1ccccc1OCCNCC(O)COc1ccc2[nH]c(=O)ccc2c1 (stereo not drawn) | > 1
COc1ccccc1OCCNCC(O)COc1ccc2c(c1)NC(=O)CC2 (stereo not drawn) | > 1
COc1ccccc1OCCNCC(O)COc1ccc2[nH]ncc2c1 (stereo not drawn) | > 1
OC(CNCc1cc2ccccc2o1)COc1ccc2c(c1)[nH]c1ccccc12 (stereo not drawn) | > 1
OC(CNCc1nc2ccccc2o1)COc1ccc2c(c1)[nH]c1ccccc12 (stereo not drawn) | > 1
OC(COc1ccc2c(c1)[nH]c1ccccc12)CN1CCOc2ccccc21 (stereo not drawn) | > 1
OC(COc1ccc2c(c1)[nH]c1ccc(F)cc12)CN1CCOc2ccccc21 (stereo not drawn) | > 1
COc1ccccc1OCCNC(=O)COc1cccc2[nH]c3ccccc3c12 | 0.00355
COc1ccccc1OCC(CO)NC(=O)COc1cccc2[nH]c3ccccc3c12 (stereo not drawn) | 0.00363
Oc1ccc2[nH]c3ccc(Br)cc3c2c1Br | > 1
COc1ccccc1OCCN1CC(COc2ccc3[nH]c4ccc(Br)cc4c3c2Br)OCC1=O (stereo not drawn) | > 1
COc1cc(Cl)c(Cl)cc1OCCN1CC(COc2cccc3[nH]c4ccccc4c23)OCC1=O (stereo not drawn) | > 1
O=C1COC(COc2cccc3[nH]c4ccccc4c23)CN1CCOc1cc(Cl)c(Cl)cc1Cl (stereo not drawn) | > 1
c1ccc2c(c1)[nH]c1cccc(OCC3CN(CCOC4CCCCC4)CCO3)c12 (stereo not drawn) | > 1
